Values of other authors, collected in US20240115578A1, “DRUG COMPOSITION FOR TREATING PEDIATRIC CANCERS” (CHUGAI SEIYAKU KABUSHIKI KAISHA, priority 2021, published 2024).

Tested on: ALK fusion gene-positive NSCLC
Conditions: phase III, Japanese adults; cited from earlier work

SMILES: CCc1cc2c(cc1N1CCC(N3CCOCC3)CC1)C(C)(C)c1[nH]c3cc(C#N)ccc3c1C2=O [alectinib, 9-ethyl-6,6-dimethyl-8-(4-morpholin-4-yl-piperidin-1-yl)-11-oxo-6,11-dihydro-5H-benzo[b]carbazole-3-carbonitrile]
- Safety and efficacy outcomes versus crizotinib: better outcomes than crizotinib in terms of both safety and efficacy
